From patent EP0404945A1 (priority 1989, dated 1990)

Assays:
houseflies [1] = assay: Insecticidal activity on houseflies, laboratory test in gauze boxes; details: for Death of flies, % after 48 hours / Death of flies, % after 72 hours: concentration 2 % by mass
Solubility in solvents = details: qualitative; water and organic solvents
houseflies [2] = assay: Insecticidal activity on houseflies, production test in home and production premises; details: after 72 hrs

Structure (SMILES): COP(=O)(O)NC(CCl)C(Cl)c1ccc([N+](=O)[O-])cc1 (stereo not shown)
- Death of flies, % after 48 hours (houseflies [1]): 54%
- Death of flies, % after 72 hours (houseflies [1]): 89.1%
- solubility (Solubility in solvents): soluble in water, alcohols and acetone

Structure (SMILES): COP(=O)(O)NC(CCl)C(O)c1ccc([N+](=O)[O-])cc1 (stereo not shown)
- Death of flies, % after 48 hours (houseflies [1]): 36.4%
- Death of flies, % after 72 hours (houseflies [1]): 70%
- solubility (Solubility in solvents): soluble in water, alcohols and acetone

Structure (SMILES): COP(=O)(O)NC(CO)C(O)c1ccc([N+](=O)[O-])cc1 (stereo not shown)
- Death of flies, % after 48 hours (houseflies [1]): 46%
- Death of flies, % after 72 hours (houseflies [1]): 94.2%
- solubility (Solubility in solvents): soluble in water, alcohols, acetone

Structure (SMILES): O=[N+]([O-])c1ccc(C(O)C(CO)NP(=O)(O)O)cc1 (stereo not shown) [Example 1, 1-para-netrophenyl-1,3--propanediolamidophosphoric acid]
- Death of flies, % Tests laboratory (houseflies [1]; concentration 2 %): 100%
- Death of flies, % Tests production (houseflies [2]; concentration 2 %): 100%

Structure (SMILES): O=[N+]([O-])c1ccc(C(O)C(CCl)NP(=O)(O)O)cc1 (stereo not shown) [Example 2, 1-para-nitrophenyl-1--chloro-3-propanolamidophosphoric acid]
- Death of flies, % Tests laboratory (houseflies [1]; concentration 2 %): 100%
- Death of flies, % Tests production (houseflies [2]; concentration 2 %): 100%

Structure (SMILES): O=[N+]([O-])c1ccc(C(Cl)C(CCl)NP(=O)(O)O)cc1 (stereo not shown) [Example 3]
- Death of flies, % Tests laboratory (houseflies [1]; concentration 2 %): 100%
- Death of flies, % Tests production (houseflies [2]; concentration 2 %): 100%

Structure (SMILES): COP(=O)(NC(CCl)C(O)c1ccc([N+](=O)[O-])cc1)OC (stereo not shown) [Example 11, 1-para-nitrophenyl-1-chloro-3-propanolamidophosphoric acid dimethyl ether]
- Death of flies, % Tests production (houseflies [2]; concentration 1 %, listed as Example 18, 4320 min): 66%
- Death of flies, % Tests production (houseflies [2]; concentration 1 %, listed as Example 22, 4320 min): 73%

Structure (SMILES): COP(=O)(NC(CCl)C(Cl)c1ccc([N+](=O)[O-])cc1)OC (stereo not shown) [Example 12, 1-para-nitrophenyl--1,3-dichloropropanamidophosphoric acid dimethyl ether]
- Death of flies, % Tests production (houseflies [2]; concentration 1 %): 70%

Structure (SMILES): CCOP(=O)(NC(CCl)C(O)c1ccc([N+](=O)[O-])cc1)OCC (stereo not shown) [Example 13, 1-para-nitrophenyl-1-chloro-3-propanolamidophosphoric acid diethyl ether]
- Death of flies, % Tests production (houseflies [2]; concentration 1 %): 98%

Structure (SMILES): CCOP(=O)(NC(CCl)C(Cl)c1ccc([N+](=O)[O-])cc1)OCC (stereo not shown) [Example 14, 1-para-nitrophenyl-1,3--dichloropropanamidophosphoric acid diethyl ether]
- Death of flies, % Tests laboratory (houseflies [1]; concentration 1 %): 100%
- Death of flies, % Tests production (houseflies [2]; concentration 1 %): 100%

Structure (SMILES): COP(=O)(OC)C(O)C(Cl)(Cl)Cl (stereo not shown) [Known insecticidal preparation, O,O-Dimethyl-(1-hydroxy-2,2,2-tri-chloroethyl)-phosphonate]
- Death of flies, % Tests production (houseflies [2]; concentration 1 %): 89%
